How the values were obtained:
[1] = biological target: M2AChR (Homo sapiens, UniProt P08172); experiment: Competitive radioligand binding; settings: negative log-transformed
[2] = biological target: T1, human M1 muscarinic receptor (Homo sapiens, UniProt P11229); experiment: GTP-γ-[35S] binding, antibody capture SPA (agonist and antagonist mode); format: biochemical
T1 construct: purchased PerkinElmer Life and Analytical Sciences, Boston, MA
Experimental: The antibody capture scintillation proximity technique previously described by DeLapp et al was used in a 96-well plate to determine GTP-γ-[35S] binding. One hundred μl (20–40 fmol/well) of membrane preparation from CHO cells that stably express the human M1-M5 muscarinic receptors (PerkinElmer Life and Analytical Sciences, Boston, MA) were incubated with varying concentration of test compound (final concentrations from 50pM to 1μM) for 30 min. One μM final concentration of GDP was added to M2 and M4 receptor membranes before incubation. […] (500 pM final concentration; Perkin Elmer Life and Analytical Sciences) was added to each well followed by 30 min of incubation. […] An anti-Gαq/11 antibody was used for the M1-, M3-, and M5 membranes, whereas an anti-Gαi-3 antibody was used for the M2- and M4 membranes (Eli Lilly and Company, Indianapolis, IN). […] By use of a Wallac MicroBeta TriLux scintillation counter (PerkinElmer), the plates were centrifuged for 10 min at 700 × g and counted for 1 min per well. The incubations took place at room temperature in GTP-binding assay buffer (20 mM Hepes, 100 mm NaCl, 5 mM MgC12, pH 7.4). The data were analyzed by use of nonlinear regression for a sigmoidal concentration response curve (GraphPad Prism v. 4.0). […] The mean relative EC50, IC50, and %Emax, and pKi values were calculated as a mean of at least three independent experiments±SEM. […]

By UniProt entry, the sequences of proteins in these tests, tags left out. Where a name states a change or a piece, a line headed by the entry shows the natural chain unless it says otherwise.
UniProt P08172, whole entry: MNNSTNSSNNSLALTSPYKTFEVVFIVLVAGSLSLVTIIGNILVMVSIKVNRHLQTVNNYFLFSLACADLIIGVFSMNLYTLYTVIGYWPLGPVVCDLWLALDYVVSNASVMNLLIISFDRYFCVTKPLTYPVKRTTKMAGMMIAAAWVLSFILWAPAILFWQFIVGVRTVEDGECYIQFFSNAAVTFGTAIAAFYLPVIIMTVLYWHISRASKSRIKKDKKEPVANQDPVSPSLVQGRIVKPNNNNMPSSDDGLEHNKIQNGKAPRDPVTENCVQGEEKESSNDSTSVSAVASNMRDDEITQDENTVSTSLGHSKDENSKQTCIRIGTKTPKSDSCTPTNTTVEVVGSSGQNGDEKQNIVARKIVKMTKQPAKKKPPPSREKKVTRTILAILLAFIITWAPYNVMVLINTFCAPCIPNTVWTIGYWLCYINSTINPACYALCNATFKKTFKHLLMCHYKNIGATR
UniProt P11229: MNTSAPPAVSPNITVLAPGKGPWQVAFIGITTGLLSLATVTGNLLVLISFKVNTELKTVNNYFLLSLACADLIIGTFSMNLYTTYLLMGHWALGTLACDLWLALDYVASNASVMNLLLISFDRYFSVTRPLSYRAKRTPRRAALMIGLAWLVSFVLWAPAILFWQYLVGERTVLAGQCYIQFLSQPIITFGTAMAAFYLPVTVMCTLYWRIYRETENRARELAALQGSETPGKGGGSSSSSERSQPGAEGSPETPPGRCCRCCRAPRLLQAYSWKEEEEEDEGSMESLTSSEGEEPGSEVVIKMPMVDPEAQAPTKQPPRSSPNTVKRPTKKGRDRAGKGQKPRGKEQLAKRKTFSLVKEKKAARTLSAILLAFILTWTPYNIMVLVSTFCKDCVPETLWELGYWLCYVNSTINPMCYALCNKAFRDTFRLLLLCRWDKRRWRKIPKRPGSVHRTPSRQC

[3] = biological target: T2, human M2 muscarinic receptor (Homo sapiens, UniProt P08172); experiment: as above; format: biochemical
T2 construct: purchased PerkinElmer Life and Analytical Sciences, Boston, MA
Experimental: The antibody capture scintillation proximity technique previously described by DeLapp et al was used in a 96-well plate to determine GTP-γ-[35S] binding. One hundred μl (20–40 fmol/well) of membrane preparation from CHO cells that stably express the human M1-M5 muscarinic receptors (PerkinElmer Life and Analytical Sciences, Boston, MA) were incubated with varying concentration of test compound (final concentrations from 50pM to 1μM) for 30 min. One μM final concentration of GDP was added to M2 and M4 receptor membranes before incubation. […] (500 pM final concentration; Perkin Elmer Life and Analytical Sciences) was added to each well followed by 30 min of incubation. Then the labelled membranes were solubilized with 0.27% Nonidet P40 for 30 min where after they were incubated with 20 μl (final dilution of 1:400) of the appropriate rabbit polyclonal Gα antibody (Covance, Princeton, NJ) for 60 min. […] By use of a Wallac MicroBeta TriLux scintillation counter (PerkinElmer), the plates were centrifuged for 10 min at 700 × g and counted for 1 min per well. […] The data were analyzed by use of nonlinear regression for a sigmoidal concentration response curve (GraphPad Prism v. 4.0). […] The mean relative EC50, IC50, and %Emax, and pKi values were calculated as a mean of at least three independent experiments±SEM. […]

Ki [1]: 295 nM
Emax [2]: 68.3 ± 5.31%
% Inhibition ([2]; antagonist mode, maximal inhibition of EC90 agonist response): 15.2± 0.47%
EC50 ([3]; agonist mode, mean ± SEM of negative log-transformed values, read-out: Rel pEC50 (converted)): 11.5 nM
IC50 ([3]; antagonist mode against EC90 of agonist, negative log-transformed, read-out: Rel pIC50 (converted)): 1.66 nM
Compound: CCCCCCOc1nsnc1C1=CCCN(C)C1 [Xanomeline, xanomeline]

Reference: paper PMC4399838, “Antipsychotic-Like Effect of the Muscarinic Acetylcholine Receptor Agonist BuTAC in Non-Human Primates” (PLoS ONE, 2015)
